The numbers were not newly measured in patent US20070238669A1, “HUMAN GLUCAGON-LIKE-PEPTIDE-1 MODULATORS AND THEIR USE IN THE TREATMENT OF DIABETES RELATED CONDITIONS” (Bristol-Myers Squibb Company, priority 2006, published 2007), which cites them from elsewhere.

For the substance GLP-1 (7-37), the serum half-life entry is on record as “less than five”.
